Cneo AK release – Cryptococcus neoformans cell lysis inducers, primary screen, AK release luminescence, single concentration | lysis activity, % at 15 µM | C. neoformans lysis, adenylate kinase release luminescence, 4 h; normalised: neutral wells 0, clomiphene wells 100 | hit rate 0.2% among 360,000;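 active = mean lysis activity across replicates of at least 80%, whatever share of replicates individually reach that level; inactive = mean lysis activity below 80%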
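read-out = cell lysis signal | test system = log-phase Cryptococcus neoformans yeast cells | input = cells at 5 × 10^6 per mL | medium = fresh YPD growth medium | signal = luminescent adenylate kinase detection reagent | timing = 4 h at 37 °C static, read 1 h later | dosing = single dose | controls = Clomiphene as positive lysis control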
C2C12 statin – suppressors of statin myotoxicity in C2C12 myotubes, primary screen, cell-based, single point, plate reader | C2C12 myotubes + simvastatin, ATP luminescence, 48 h; scaled: DMSO 0, geranylgeraniol control 100 | hit rate 0.78% among 330,000 | rescue of ATP level, % at 7.49 µM;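 active = mean ATP rescue above about 67%, or every replicate alone reaching that limit, limit read from the data, passing the limit was not always enough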;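 note: myotubes were challenged with 10 µM simvastatin during compound exposure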
Glyco luc inh – increase of ERlucT glycosylation luciferase signal, primary screen, N-linked glycosylation inhibitor project, D54 ERlucT cells, luminescence, set 2; hit rate 0.23% among 360,000; D54 ERlucT glycosylation luciferase reporter, 24 h; percent of 100 nM tunicamycin response; reporter increase, % at 12.5 µM;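 active = mean luciferase reporter signal, scaled so untreated is 0 and the glycosylation-blocking control 100, at or above a set limit in every replicate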;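 note: luciferase carries N-glycosylation sites so blocking glycosylation raises the light; 0% = median of neutral control wells and 100% = median of 100 nM tunicamycin wells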
Yeast UUG start-1 – yeast start codon fidelity modulation; activity score, % at 18.7 µM; actives 0.13% (n = 350,000); S. cerevisiae UUG-firefly luciferase reporter, luminescence/redox ratio; AID 602363;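 active means replicate mean at a twofold rise or more, about +100% in these data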;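 further: firefly luciferase made from a UUG start codon reports start codon fidelity; reporter light over untreated wells divided by growth signal over untreated wells; some hits fall short of that in this replicate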
miR122 inh – miR-122 Renilla sensor signal increase in Huh7, primary screen, miR-122 inhibitor project, cell-based, single point, plate reader; Huh7 miR-122 Renilla luciferase sensor, 48 h; neutral wells = 0, positive control = 100; activation (reporter increase), % at 12.5 µM; hit rate 0.3% among 340,000; AID 602342, 2012;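 active = mean replicate activation score at least 90 and every replicate individually at or above 90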;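 note: higher luciferase means less miR-122 activity so hits act as miR-122 inhibitors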
Yeast UUG start-2 – enhancers of UUG start codon usage in yeast, dose response, S. cerevisiae, UUG firefly luciferase, cherry-pick, set 2. shares compounds with Yeast UUG start-1. luminescence, 4 h; 100% means double the DMSO signal. activation, % at 38 µM. 540 tested, under 10 active. AID 652061, 2013;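 active = signal increase whose fitted curve reaches an absolute level of 40 at a concentration under 10 µM; inactive = activity opposite to the expected increase, or the rest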
* = called active by the depositor; i = inactive; nt = not tested or not shown; [ ] = dose if it differs, or a comment. The list is not random: actives were taken first. Their share in the collection is about 1.2%.

SMILES	Cneo AK release	C2C12 statin	Glyco luc inh	Yeast UUG start-1	miR122 inh	Yeast UUG start-2
CCN(CC)S(=O)(=O)c1cccc(C(=O)Nc2cc(C)cc(C)c2)c1	-2	-11	-4	1	17	nt
CCN(CC)S(=O)(=O)c1ccc(C(=O)Nc2cc(C)cc(C)c2)cc1	-2	-25	-4	322*	-5	3
COC(=O)CSc1nnc(-c2sc3ccccc3c2Cl)o1	-5	7	0	565*	-2	-5
N#CCSc1nnc(-c2sc3ccccc3c2Cl)o1	nt	nt	5	nt	nt	-1
COc1ccc(-c2nnc(SCC#N)o2)cc1	-1	-7	1	-10	nt	nt
O=C(C[C@@H]1C[C@@H]2c3cc(NC(=O)Nc4ccccc4F)ccc3O[C@@H]2[C@H](CO)O1)NCc1cc(F)ccc1F	43	-3	nt	3	13[16.7 µM]	nt
COc1ccc(S(=O)(=O)N(C)C[C@@H]2OCCCC[C@H](C)Oc3ccc(NS(=O)(=O)c4ccc(F)cc4)cc3C(=O)N([C@H](C)CO)C[C@@H]2C)cc1	45	46	nt	2	8[16.7 µM]	nt
COC(=O)c1cn(NC(=O)Cc2ccc(OC)c(OC)c2)c(=O)c2ccccc12	1	4	2	479*	2	-1
Cc1ccc(NC(=O)Cc2nn(C)c(=O)c3ccccc23)cc1F	-2	nt	0	1	-5	16
Cn1nc(CC(=O)Nc2ccc3c(c2)OCCO3)c2ccccc2c1=O	nt	nt	3	nt	-8	-2
Cn1nc(CC(=O)Nc2cccc(O)c2)c2ccccc2c1=O	nt	nt	nt	nt	nt	i
Cn1nc(CC(=O)NCc2cccc3ccccc23)c2ccccc2c1=O	-1	1	1	-16	-3	nt
Cn1c(C(=O)O)c(CC(=O)Nc2ccc3c(c2)OCCO3)c2ccccc21	-5	1	-12	-47	-3	nt
O=C(NC(=S)Nc1cccc(C(F)(F)F)c1)c1ccc2nonc2c1	3	nt	2	139*	13	-8
CCOc1cc(OCC)cc(C(=O)NC(=S)Nc2cccc(C(F)(F)F)c2)c1	nt	nt	1	nt	8	nt
COc1cc(C(=O)N2CCCc3ccccc32)cc(OC)c1OC	0	-33	8	-12	2	nt
COc1ccc(C(=O)N2CCCc3ccccc32)cc1OC	2	-1	2	active	2	-7
CCCCn1c(N)c(N(CCOC)C(=O)C2CC(=O)N(c3ccc(CC)cc3)C2)c(=O)[nH]c1=O (stereo not drawn)	-1	6	-1	129*	nt	-6
CCCCn1c(N)c(N(CCOC)C(=O)C2CC(=O)N(Cc3ccc(C)cc3)C2)c(=O)[nH]c1=O (stereo not drawn)	1	-5	0	-6	nt	nt
CC(C)(C#CC(O)(c1ccccc1)c1ccccc1)N1CCCCC1	2	11	0	-2	2	nt
CC(O)(C#CCN1CCCCCC1)c1ccccc1 (stereo not drawn)	nt	nt	1	nt	-1	1
CC(C)(C#CC(O)(c1ccccc1)c1ccccc1)N1CCCC1	nt	nt	-2	nt	nt	11
COc1ccc(S(=O)(=O)Nc2ccc3c(c2)C(=O)N([C@@H](C)CO)C[C@@H](C)[C@H](CN(C)C(=O)c2ccccc2)OCCCC[C@H](C)O3)cc1	-1	47	nt	14	-9[16.7 µM]	nt
N#Cc1ccccc1OCc1cn(CC(=O)c2ccc(O)cc2)nn1	-3	-5	2	152*	3	11
COC(=O)CC1C(=O)NCCN1C(=O)CSc1nc2ccccc2s1 (stereo not drawn)	nt	nt	0	nt	nt	nt

(cont.)
SMILES	Cneo AK release	C2C12 statin	Glyco luc inh	Yeast UUG start-1	miR122 inh	Yeast UUG start-2
Cc1cc(Nc2ccc(Cl)cc2)nc(NCc2ccccc2)n1	nt	nt	-6	active	5	-2
O=C(Cn1cc(C(=O)C2CC2)c2ccccc21)NCC1CCCO1 (stereo not drawn)	-5	11	1	9	-1	6
O=C(O)Cn1cc(C(=O)C2CC2)c2ccccc21	-2	-2	0	-5	0	nt
O=C(Cn1cc(C(=O)C2CC2)c2ccccc21)NC1CCCC1	-7	-1	0	6	2	8
CCOC(=O)C1CCN(C(=O)C(=O)c2cn(CC(=O)N3CCCCCC3)c3ccccc23)CC1	5	6	2	6	-3	nt
COC(=O)c1cn(CC(=O)NC2CCCCC2)c2ccccc12	nt	nt	1	nt	nt	nt
CCOC(=O)C1CCN(C(=O)Cn2cc(C(=O)C3CC3)c3ccccc32)CC1	8	1	2	-9	-2	11
O=C(c1cn(CC(=O)N2CCCCC2)c2ccccc12)C1CC1	-2	1	1	-15	4	3
Cc1noc(C)c1NC(=O)Nc1ccc2c(c1)C(=O)N([C@H](C)CO)C[C@H](C)[C@@H](CN(C)C(=O)Nc1ccc3c(c1)OCO3)OCCCC[C@@H](C)O2	0	nt	nt	7	14[16.7 µM]	nt
Cc1ccc(S(=O)(=O)N(C)C[C@@H]2Oc3ncc(-c4ccncc4)cc3C(=O)N([C@@H](C)CO)C[C@H]2C)cc1	-6	-6	nt	200*	-6[16.7 µM]	i
Cc1ccc(S(=O)(=O)N(C)C[C@H]2Oc3ncc(Br)cc3C(=O)N([C@@H](C)CO)C[C@H]2C)cc1	39	-3	nt	108*	0[16.7 µM]	i
Cc1ccc(S(=O)(=O)N2CCOCC2)cc1C(=O)OC(C)C(=O)NC1CCCC1 (stereo not drawn)	1	1	0	119*	nt	-5
CNC[C@@H]1Oc2ccc(NS(=O)(=O)c3cn(C)cn3)cc2C(=O)N([C@H](C)CO)C[C@@H]1C	-8	16	nt	-5	4[16.7 µM]	nt
CCN(CC)CCNC(=O)Cc1nn(Cc2ccccc2)c(=O)c2ccccc12	-1	-3	-1	-18	2	-8
CCN(CC)CCNC(=O)Cn1nc(Cc2ccncc2)c2ccccc2c1=O	0	3	0	-4	-11	nt
COCC(=O)Nc1ccc2c(c1)C(=O)N(C)C[C@@H](OC)[C@H](C)CN(Cc1ccccc1F)[C@H](C)CO2	0	-6	nt	3	nt	nt
CO[C@@H]1CN(C)C(=O)c2ccc(NC(=O)c3ccccc3F)cc2OC[C@@H](C)N(C(C)=O)C[C@@H]1C	-2	-8	nt	2	nt	nt
COCC(=O)Nc1ccc2c(c1)OC[C@@H](C)N(C(=O)COC)C[C@@H](C)[C@@H](OC)CN(C)C2=O	0	-3	nt	197*	nt	i
CO[C@@H]1CN(C)C(=O)c2ccc(NC(=O)c3ccccc3F)cc2OC[C@H](C)N(C(C)=O)C[C@@H]1C	-13	11	nt	123*	nt	i

Record cards, from the list above:
Profile of COCC(=O)Nc1ccc2c(c1)OC[C@@H](C)N(C(=O)COC)C[C@@H](C)[C@@H](OC)CN(C)C2=O = Cneo AK release: 0; C2C12 statin: -3; Glyco luc inh: nt; Yeast UUG start-1: 197*; miR122 inh: nt; Yeast UUG start-2: i
Profile of O=C(Cn1cc(C(=O)C2CC2)c2ccccc21)NCC1CCCO1 (stereo not drawn) = Cneo AK release: -5; C2C12 statin: 11; Glyco luc inh: 1; Yeast UUG start-1: 9; miR122 inh: -1; Yeast UUG start-2: 6
Profile of Cc1ccc(S(=O)(=O)N(C)C[C@H]2Oc3ncc(Br)cc3C(=O)N([C@@H](C)CO)C[C@H]2C)cc1 = Cneo AK release: 39; C2C12 statin: -3; Glyco luc inh: nt; Yeast UUG start-1: 108*; miR122 inh: 0[16.7 µM]; Yeast UUG start-2: i

Screening results as filed in PubChem.
